Measurements reported in patent US9777012B2, “Substituted furo[2,3-d]pyrimidines as multi-targeted receptor tyrosine kinase inhibitors and microtubule targeting antitumor agents” (Duquesne University of the Holy Spirit, priority 2014, dated 2017).

Test system: colchicine site on tubulin
Experiment: Inhibition of [3H]colchicine binding to tubulin
Settings: 5 μM compound

COc1ccc(/C=C\c2cc(OC)c(OC)c(OC)c2)cc1O [CA-4, combretastatin A-4]
Inhibition of colchicine binding % inhibition ± SD: 99 ± 0.2%
